Data from patent US5994563A, “Arylmethylphosphonic acid derivatives useful in treating bone wasting diseases” (Ortho Pharmaceutical Corporation, priority 1999, dated 1999).
This is a selection: effects in other tests are not listed, and their absence says nothing.

System: human osteoblastic (TE85) tyrosinephosphate phosphatase
Test: Tyrosylphosphate Phosphatase Enzyme Inhibition Assay (TE85)
Type: biochemical
Settings: read-out: TF85 IC50; enzyme from TE85 cell extract, 32P peptide substrate 0.1 uM, 15 minutes at 37° C.

[4-(4-Cyanophenoxy)-5-nitro]phenylhydroxy methylphosphonic acid
IC50: 14 µM
